Experimental data from patent US7718768B2, “Biologically active peptide [sequence]” (CMS Peptides Patent Holding Company Limited, priority 2001, dated 2010).

System: NK cell
Test: NK cell cytotoxicity activity test (YAC-1 target cells, MTT) on spleen cells of treated mice
Format: in vivo, BALB/c mice
Details: IFN-γ and IL-2 groups 3×10^5 IU/kg/day, X ± SD
Method: The above substances were all dissolved in 0.5 ml saline and injected intraperitoneal (i.p.) for 15 continuous days, once per day.
Ten mice per group. The day after the last test substance administration, the mice were sacrificed by cervical dislocation. The spleen was isolated aseptically and manually dispersed in cold D-Hank's solution using an injection needle. The dispersed cell suspension was further sieved through a 100 gauge 150 μm diameter stainless steel sieve. After centrifugation at 200 g for 10 minutes, the supernatant was discarded. The cell pellet was re-suspended in 10 volume of Tris-NH4Cl buffer and then kept standing still for 10 minutes at room temperature. The suspended cells were collected by centrifugation at 150 g for 10 minutes. The cells were washed 2-4 times with cold D-Hank's solution by re-suspending and collecting by centrifugation with condition as described above. The washed cells were then diluted to the desired cell densities by RPMI-1640 culture medium, containing 10% fetal bovine serum.
Mice spleen cells were prepared to 4×10^6/ml as described in section 1.1 above. Target cells YAC-1 were brought to log phase and adjusted to 1×10^5/ml. Using a 96 wells cell culture plate, 100 μl mouse spleen cells and 100 μl culture medium were added to the control well containing only the spleen cells; 100 μl target cells and 100 μl culture medium were added to the control well containing only target cells; 100 μl mouse spleen cells and 100 μl target cells were added to the NK activity assay well. Three parallel sets of the above were prepared per mouse.
Samples were centrifuged at 150 g for 10 minutes to collect the cells. The supernatant was discarded and 50 μl/well MTT of 1 mg/ml was added. The reaction mixture was then shaken for 2 minutes, and incubated at 37° C., 5% CO2 for 4 hours. The supernatant was discarded after centrifugation at 150 g for 10 minutes. 120 μl 40 mM HCl-2-propanol was added and shaken for 3 minutes. An ELISA reader was used to obtain OD570nm of each well referenced at 630 nm.

**Q.** With “IL-2: recombinant human interleukin-2, Shanghai Huaxin Biotech Inc.; positive control immunostimulant” as the substance, how does the “NK cell cytotoxic activity (NK cell activity index)” value (peptide 0.5 μg/kg/day i.p. 15 days) read?
**A.** Its value is 74 ± 10 %.

**Q.** What about the “NK cell cytotoxic activity (NK cell activity index)” value (peptide 5 μg/kg/day i.p. 15 days) of the same substance?
**A.** The value was 80 ± 8 %.

**Q.** What about the “NK cell cytotoxic activity (NK cell activity index)” value (peptide 50 μg/kg/day i.p. 15 days) of the same substance?
**A.** Its value is 74 ± 8 %.

**Q.** What about the “NK cell cytotoxic activity (NK cell activity index)” value (peptide 500 μg/kg/day i.p. 15 days) of the same substance?
**A.** The value was 77 ± 8 %.
